scFv variants of Ab-14 (light chain) against a SARS-CoV-2 spike peptide

Reference: Engelhart et al. 2022, doi:10.1038/s41597-022-01779-4. File: FLAb, binding data.

Target: peptide PDVDLGDISGINAS, taken from heptad repeat 2 (HR2) of SARS-CoV-2 spike.

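The parent was found by panning a naive human phage display library on the peptide. Variants in AAYL50 differ from the parent at up to three CDR positions; double and triple changes were sampled at random. AlphaSeq pools MATa yeast showing the antibodies with MATalpha yeast showing the peptide. After mating in shaken culture at 30 °C for 16 h, diploids were selected and their barcode pairs sequenced. The ratio of observed to expected reads was calibrated, replicate by replicate, on BCL2-family standards whose Kd was known from biolayer interferometry. Mating was done three times.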

Parent: Ab-14, a human scFv built as VH, three GGGGS repeats, VL. Only the CDRs of the light chain vary.
VH: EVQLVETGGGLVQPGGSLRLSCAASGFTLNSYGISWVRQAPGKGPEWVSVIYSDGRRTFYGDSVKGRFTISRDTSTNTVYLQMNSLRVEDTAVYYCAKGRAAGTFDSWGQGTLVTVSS
VL: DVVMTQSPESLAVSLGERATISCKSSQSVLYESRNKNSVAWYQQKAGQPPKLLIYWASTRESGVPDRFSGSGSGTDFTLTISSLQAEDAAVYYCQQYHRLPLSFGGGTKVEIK

Variants are written as CDR1, CDR2 and CDR3 of the light chain (limits as in the source). Parent: KSSQSVLYESRNKNSVA, WASTRES, QQYHRLPLS.
Numbers give log10(Kd / nM), so 0 is 1 nM and 3 is 1 µM. Smaller is tighter.
"nd" means that the variant was in the library but no mating with the target was seen in that replicate; the authors take this as a sign of poor binding, and no number exists.
As a blank, each scFv also met three strains without target: over library AAYL50, 18% of these pairings were detected, typically at 4.19 and seldom below 2.99. Also given: how often the same scFv was detected with the empty control strains, with their mean in brackets.
In this assay the parent's reference entry averaged 0.65; its copy inside this library read 1.68.

| # | CDR-L1 | CDR-L2 | CDR-L3 | log10 Kd, replicates | empty controls |
|---|---|---|---|---|---|
| 1 | KSSQSVHYESRNLNSVA | WASTQES | QQYHRLPLS | 3.57 3.62 3.76 | 4/9 (4.51) |
| 2 | KSSQSVIYETRNHNSVA | WASTRES | QQYHRLPLS | 3.03 3.29 2.85 | 0/9 |
| 3 | KSSQSVLYESRNKNSVA | WASTRES | QIWHRGPLS | nd nd nd | 0/9 |
| 4 | KSSQSVLYESRNKNSIA | WASNRES | QQYHSLPLS | nd nd nd | 1/9 (3.03) |
| 5 | KSSQSVLYEMRNKNSVA | WASERES | QQTHRLPLS | 0.78 1.00 0.97 | 5/9 (4.65) |
| 6 | KSSQSVLYESRNKWSVK | WAWTRES | QQYHRLPLS | nd 3.32 nd | 2/9 (3.31) |
| 7 | KSCQSVLCESRNKNSVA | WASTREL | QQYHRLPLS | 2.20 1.86 2.18 | 3/9 (4.46) |
| 8 | KSSQSNLYESRNKNSVM | WASTRES | QLYHRLPLS | nd nd nd | 0/9 |
| 9 | KSSQSVLYESRNKNSVA | WASTREG | QEKHRLPLS | 0.74 1.22 1.15 | 0/9 |
| 10 | KSSQSVLYESRNKNSVA | WKSTRPS | LQYHRLPLS | nd nd nd | 0/9 |
| 11 | KSSQQVLYEIRNKNSVA | WASTRES | QQYHRLKLS | nd nd 3.88 | 2/9 (4.46) |
| 12 | KFSQSVLYESRNKQSVA | WPSTRES | QQYHRLPLS | nd 3.05 nd | 0/9 |
| 13 | KSSQSFLFESRNKNSVA | WASTRES | QQPHRLPLS | nd nd 3.09 | 0/9 |
| 14 | KSSQSVLYESRNKNIVD | WASTREL | QQYHRLPLS | nd 2.90 nd | 0/9 |
| 15 | KSVQSVLYESRNKNSVA | FASTEES | QQYHRLPLS | nd 3.54 nd | 3/9 (3.61) |
| 16 | KSSQSVLYEIRNKKSVM | WASTRES | QQYHRLPLS | 5.09 nd nd | 3/9 (4.77) |
| 17 | KISQIVLYESLNKNSVA | WASTRES | QQYHRLPLS | 0.21 0.45 0.32 | 0/9 |
| 18 | KSSQSVLYESRNKNSLA | WHSTGES | QQYHRLPLS | 3.82 nd nd | 4/9 (4.10) |
| 19 | KSSQSVLYESRNKNSVA | WASTRED | QQYSRLPLS | 0.43 0.68 0.66 | 7/9 (4.53) |
| 20 | KSMQHVLYESRNKNIVA | WASTRES | QQYHRLPLS | nd 2.76 nd | 1/9 (4.02) |
| 21 | KVSQSVLYESRNKNAVA | WASTAES | QQYHRLPLS | 0.89 0.97 0.82 | 1/9 (3.90) |
| 22 | DSSQSVLYESRNKNWVA | WASTRES | QQYHRLPLS | nd nd 4.31 | 5/9 (4.49) |
| 23 | ISSQLVLYESRNKNSVA | WASRRES | QQYHRLPLS | nd nd 5.31 | 1/9 (3.29) |
| 24 | KSSQSVLYESRNKNSVS | WASTRES | QQYHRLPLQ | nd 4.43 6.29 | 3/9 (4.64) |
| 25 | KRSQSVLYESRNKISVA | WAQTRES | QQYHRLPLS | 3.80 nd 2.95 | 2/9 (5.04) |
| 26 | KSSQSCLYENRNKNSVA | WASTRES | QQYHRLHLS | nd nd nd | 2/9 (3.54) |
| 27 | YSSQSVLKESRNKNSVA | WASTRES | VQYHRLPLS | nd nd nd | 0/9 |
| 28 | KSSQSVAYQSRNKNSVA | WASTRES | QQYHRGPLS | 2.77 2.51 3.09 | 5/9 (3.85) |
| 29 | KSPQSVLYESRNKNSVA | WAWTRES | AQYHRLPLS | nd nd nd | 1/9 (3.78) |
| 30 | KSSSSVMYESRNKMSVA | WASTRES | QQYHRLPLS | nd 3.46 nd | 0/9 |
| 31 | KSSQSVLYESRNKNSVA | WASTREL | QQYNRLPLS | 0.71 0.85 0.76 | 1/9 (5.09) |
| 32 | KPSQSVLYESRNKNSVA | WASTRES | PQYHRLQLS | nd nd nd | 2/9 (3.99) |
| 33 | KSSQSVLDESANKNSVA | WASTRES | QQYHRLPLS | 0.38 0.62 0.57 | 0/9 |
| 34 | KSSQSVLNESRNKYSVA | WAMTRES | QQYHRLPLS | 1.35 1.57 1.34 | 2/9 (5.14) |
| 35 | KSSQSVLYESENKNSVA | WNSTRLS | QQYHRLPLS | 2.63 1.61 2.08 | 0/9 |
| 36 | KSSQIVLYESRNKNSPA | WASWRES | QQYHRLPLS | nd nd nd | 0/9 |
| 37 | KSSQSVLYESRNKNSVA | WASTRMP | QQYHCLPLS | 3.05 2.53 2.44 | 4/9 (4.03) |
| 38 | KSSQSVLYESRNKNSVE | WASTRES | QQYCRCPLS | 3.83 5.23 nd | 2/9 (3.98) |
| 39 | KSSQSVLYESRNKSSVA | WASTQES | QQYHRLTLS | 3.59 2.79 3.65 | 5/9 (5.04) |
| 40 | KSSQSLLYESRNKNSVA | WQSTRES | QQYHRLPSS | nd nd nd | 1/9 (3.78) |
| 41 | KSSQSVLYESRNKNSEA | WASTRES | QQYTRLPLS | nd 3.24 nd | 0/9 |
| 42 | KSSQSVLYESPLKNSVA | WASTRES | QQVHRLPLS | 1.52 1.82 1.82 | 2/9 (3.91) |
| 43 | KSSQSVLNESRNKNSVA | WASTRES | QQYRRLPLS | 1.07 1.27 0.99 | 1/9 (3.63) |
| 44 | KSSQSVLYEWRNKNSVP | WASTREI | QQYHRLPLS | nd 4.78 5.13 | 4/9 (4.34) |
| 45 | KSSQSVLYESRNKNSVA | WASMRES | HQDHRLPLS | 3.50 3.38 3.31 | 0/9 |
| 46 | KSFQSVLYDSRNKNSVA | WASTRES | QQYHRLPLS | nd nd nd | 0/9 |
| 47 | KSSQSVLGESRNKNSMA | WASTREK | QQYHRLPLS | 0.86 1.02 0.83 | 0/9 |
| 48 | KSSQSVLCESRNKNSVA | WASTRES | SQYHRLPLS | 4.26 3.71 3.61 | 4/9 (4.47) |

The opening 8 entries, copied out:

{"CDR-L1": "KSSQSVHYESRNLNSVA", "CDR-L2": "WASTQES", "CDR-L3": "QQYHRLPLS", "log10 Kd, replicates": "3.57 3.62 3.76", "empty controls": "4/9 (4.51)"}
{"CDR-L1": "KSSQSVIYETRNHNSVA", "CDR-L2": "WASTRES", "CDR-L3": "QQYHRLPLS", "log10 Kd, replicates": "3.03 3.29 2.85", "empty controls": "0/9"}
{"CDR-L1": "KSSQSVLYESRNKNSVA", "CDR-L2": "WASTRES", "CDR-L3": "QIWHRGPLS", "log10 Kd, replicates": "nd nd nd", "empty controls": "0/9"}
{"CDR-L1": "KSSQSVLYESRNKNSIA", "CDR-L2": "WASNRES", "CDR-L3": "QQYHSLPLS", "log10 Kd, replicates": "nd nd nd", "empty controls": "1/9 (3.03)"}
{"CDR-L1": "KSSQSVLYEMRNKNSVA", "CDR-L2": "WASERES", "CDR-L3": "QQTHRLPLS", "log10 Kd, replicates": "0.78 1.00 0.97", "empty controls": "5/9 (4.65)"}
{"CDR-L1": "KSSQSVLYESRNKWSVK", "CDR-L2": "WAWTRES", "CDR-L3": "QQYHRLPLS", "log10 Kd, replicates": "nd 3.32 nd", "empty controls": "2/9 (3.31)"}
{"CDR-L1": "KSCQSVLCESRNKNSVA", "CDR-L2": "WASTREL", "CDR-L3": "QQYHRLPLS", "log10 Kd, replicates": "2.20 1.86 2.18", "empty controls": "3/9 (4.46)"}
{"CDR-L1": "KSSQSNLYESRNKNSVM", "CDR-L2": "WASTRES", "CDR-L3": "QLYHRLPLS", "log10 Kd, replicates": "nd nd nd", "empty controls": "0/9"}